Structures are written as SMILES.

The chains behind the UniProt entries cited, without tags or fusion partners.
UniProt P08908, whole entry, looked up: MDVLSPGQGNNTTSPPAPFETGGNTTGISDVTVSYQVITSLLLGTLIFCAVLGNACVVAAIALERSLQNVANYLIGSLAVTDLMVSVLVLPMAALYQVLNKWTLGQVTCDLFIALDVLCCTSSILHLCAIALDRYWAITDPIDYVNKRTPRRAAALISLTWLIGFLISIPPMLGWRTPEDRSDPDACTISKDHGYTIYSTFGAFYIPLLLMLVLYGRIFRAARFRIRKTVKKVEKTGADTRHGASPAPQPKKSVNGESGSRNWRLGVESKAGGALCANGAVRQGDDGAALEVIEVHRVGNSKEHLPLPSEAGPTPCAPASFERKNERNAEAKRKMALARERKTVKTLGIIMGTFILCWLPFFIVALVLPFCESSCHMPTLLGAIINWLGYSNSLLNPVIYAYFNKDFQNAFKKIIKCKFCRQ
UniProt P31652, whole entry, looked up: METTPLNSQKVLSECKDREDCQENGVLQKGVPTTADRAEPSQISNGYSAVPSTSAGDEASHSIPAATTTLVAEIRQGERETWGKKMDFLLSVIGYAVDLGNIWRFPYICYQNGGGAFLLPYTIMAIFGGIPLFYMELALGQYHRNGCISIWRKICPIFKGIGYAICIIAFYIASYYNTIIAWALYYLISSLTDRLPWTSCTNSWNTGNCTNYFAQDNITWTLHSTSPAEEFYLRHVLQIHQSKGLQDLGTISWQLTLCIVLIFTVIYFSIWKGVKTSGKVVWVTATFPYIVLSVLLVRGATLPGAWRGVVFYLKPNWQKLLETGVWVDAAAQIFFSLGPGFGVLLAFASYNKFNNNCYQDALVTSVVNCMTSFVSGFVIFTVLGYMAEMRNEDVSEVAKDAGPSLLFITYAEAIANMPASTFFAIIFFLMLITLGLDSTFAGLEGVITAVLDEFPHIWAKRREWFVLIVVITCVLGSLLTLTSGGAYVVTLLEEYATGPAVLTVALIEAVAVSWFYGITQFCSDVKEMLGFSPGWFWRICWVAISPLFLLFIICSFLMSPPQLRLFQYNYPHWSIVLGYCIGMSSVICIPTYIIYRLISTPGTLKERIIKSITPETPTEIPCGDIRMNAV

One experiment concerns the target human 5-HT1A receptor (Homo sapiens, UniProt P08908). In words: 5-HT1A receptor binding assay with [3H]8-OH-DPAT in CHO cell membranes. The following applies: read-out: 5-HT1A (Ki); [3H]8-OH-DPAT 1.5 nM, membranes of CHO cells expressing human 5-HT1A receptor.
The target of another experiment is serotonin transporter (Rattus norvegicus, UniProt P31652). Description: Serotonin transporter affinity, 3H-paroxetine binding to frontal cortical membranes. Also on record: species or system Sprague-Dawley rats. Particulars: read-out: ST (Ki, nM, % Inh. @.1 µM), 3H-paroxetine 0.1 nM, head also allows % Inh. @.1 µM.

Consider `c1ccc(N2CC(CNCCCCc3c[nH]c4ccccc34)Oc3ccccc32)cc1` (centres unmarked), for which the Ki at human 5-HT1A receptor was found to be 75.8 nM; on serotonin transporter, 7 nM.

The term Ki denotes the equilibrium dissociation constant of an inhibitor or competing ligand from its target.

These data come from patent EP1140925B1, “(3,4 DIHYDRO-2H-BENZO[1,4] OXAZINYL-METHYL)- 3-(1H-INDOL-3- YL)-ALKYL -AMINES” (Wyeth, priority 1999, dated 2000).
